{
  "source": "patent US20240279201A1",
  "about": "“DUAL WNT SIGNALING PATHWAY INHIBITORS AND AMPK ACTIVATORS FOR TREATMENTS OF DISEASE” (priority 2021, published 2024)",
  "test_system": "Wnt/β-Catenin signaling pathway",
  "assay": "Wnt signaling luciferase (TOPflash) reporter gene assay",
  "format": "cell-based",
  "conditions": "mean of three independent experiments, read-out: IC50 (nM) to inhibit the Wnt signaling activity",
  "from_the_text": "A dual-luciferase gene reporter assay was used to test inhibitory activities of new compounds on Wnt signaling. […] Therefore, the effects of new compounds on AMPK was examined. […]",
  "data": [
    {"smiles": "Oc1nc(-c2ccc(C(F)(F)F)cc2)nc2c1CSCC2", "note": "[XAV939, reference compound]", "values": [
      {"measurement": "IC50", "result": 166, "unit": "nM"}
    ]}
  ]
}
